Assay results from patent US8168654B2 (priority 2003, dated 2012).

Protein sequences, listed by entry. Tags and fused reporters are not part of them.
UniProt P20309, whole entry, looked up: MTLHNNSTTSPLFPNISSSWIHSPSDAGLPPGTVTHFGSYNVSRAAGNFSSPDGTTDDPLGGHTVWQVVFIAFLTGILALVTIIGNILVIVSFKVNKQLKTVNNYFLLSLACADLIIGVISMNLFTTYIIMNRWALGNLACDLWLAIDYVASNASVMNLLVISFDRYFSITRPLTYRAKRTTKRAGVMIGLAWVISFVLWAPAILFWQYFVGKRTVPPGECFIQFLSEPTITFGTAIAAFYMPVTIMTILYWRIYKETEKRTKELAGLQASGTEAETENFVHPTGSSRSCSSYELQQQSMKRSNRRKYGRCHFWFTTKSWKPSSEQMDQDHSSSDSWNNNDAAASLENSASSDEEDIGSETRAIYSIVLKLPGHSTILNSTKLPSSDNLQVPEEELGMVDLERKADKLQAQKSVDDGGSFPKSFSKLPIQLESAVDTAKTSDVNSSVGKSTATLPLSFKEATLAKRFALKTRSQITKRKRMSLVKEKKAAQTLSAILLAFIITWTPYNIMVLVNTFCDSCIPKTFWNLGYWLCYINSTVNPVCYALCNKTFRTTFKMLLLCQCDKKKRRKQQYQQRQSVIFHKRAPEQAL

What follows are compounds tested against human muscarinic acetylcholine M3 receptor (Homo sapiens, UniProt P20309) (assay: competitive filtration binding assay with [3H]NMS at human M3 receptor). Details: read-out: M3 Ki; membranes from CHO cells stably transfected with human M3 receptor; [3H]NMS 0.25 nM; 17 hours at room temperature; Ki derived by Cheng-Prusoff correction.

Structure (SMILES) | Ki [nM]
O=C(NCC[N+]12CCC(CC1)[C@@H](OC(=O)C(O)(c1ccccc1)c1ccccc1)C2)c1ccco1 | 0.7
CCCC#CC[N+]12CCC(CC1)[C@@H](OC(=O)C(O)(c1cccs1)c1cccs1)C2 | 0.2
CCC#CC[N+]12CCC(CC1)[C@@H](OC(=O)C(O)(c1cccs1)c1cccs1)C2 | 0.5
CC(C)C#CC[N+]12CCC(CC1)[C@@H](OC(=O)C(O)(c1cccs1)c1cccs1)C2 | 0.7
